Measured values reported in patent US5298508A, “Irreversible inhibitors of adenosine receptors” (priority 1992, dated 1994).

Target: T1, central A1 receptors (Rattus norvegicus, UniProt P25099)
T1 construct: A1 -adenosine receptors in rat brain membranes; from tissue; host or cells: rat brain membranes
T1 sequence (P25099 1-326): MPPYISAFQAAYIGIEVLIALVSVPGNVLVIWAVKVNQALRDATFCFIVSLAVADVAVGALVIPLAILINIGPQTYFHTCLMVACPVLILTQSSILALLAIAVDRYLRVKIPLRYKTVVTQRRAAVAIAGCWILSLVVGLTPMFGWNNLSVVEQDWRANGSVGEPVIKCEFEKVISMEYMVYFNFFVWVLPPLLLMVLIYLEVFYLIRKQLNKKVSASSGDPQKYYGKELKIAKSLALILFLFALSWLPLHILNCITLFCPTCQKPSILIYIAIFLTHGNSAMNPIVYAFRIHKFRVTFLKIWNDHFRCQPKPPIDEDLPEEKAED
Assay: irreversible inhibition of [125I]APNEA binding after one hour incubation and washout, rat brain membranes
Conditions: non-chemically reactive ligand used for comparison

CCCn1c(=O)c2[nH]c(-c3ccc(OCC(=O)NCCN)cc3)nc2n(CCC)c1=O [Compound 3, reference compound]
degree of recovery of [125I]APNEA binding sites: 90%
